Tests used:
[1] = biological target: 5'-nucleotidase (Homo sapiens) (UniProt P21589)
[2] = biological target: 5'-nucleotidase (Homo sapiens) (UniProt P21589); conditions: CCRF-CEM
[3] = biological target: 5'-nucleotidase (Homo sapiens) (UniProt P21589); conditions: RL
[4] = biological target: 5'-nucleotidase (Homo sapiens) (UniProt P21589); remark: listed apart in the source
[5] = biological target: 5'-nucleotidase (Homo sapiens) (UniProt P21589); conditions: CCRF-CEM; remark: listed apart in the source
[6] = biological target: 5'-nucleotidase (Homo sapiens) (UniProt P21589); remark: listed apart in the source
[7] = biological target: 5'-nucleotidase (Homo sapiens) (UniProt P21589); conditions: RL; remark: listed apart in the source
[8] = biological target: 5'-nucleotidase (Homo sapiens) (UniProt P21589); conditions: RL; remark: listed apart in the source

Protein sequences, listed by entry. Tags and fused reporters are not part of them.
UniProt P21589, whole entry: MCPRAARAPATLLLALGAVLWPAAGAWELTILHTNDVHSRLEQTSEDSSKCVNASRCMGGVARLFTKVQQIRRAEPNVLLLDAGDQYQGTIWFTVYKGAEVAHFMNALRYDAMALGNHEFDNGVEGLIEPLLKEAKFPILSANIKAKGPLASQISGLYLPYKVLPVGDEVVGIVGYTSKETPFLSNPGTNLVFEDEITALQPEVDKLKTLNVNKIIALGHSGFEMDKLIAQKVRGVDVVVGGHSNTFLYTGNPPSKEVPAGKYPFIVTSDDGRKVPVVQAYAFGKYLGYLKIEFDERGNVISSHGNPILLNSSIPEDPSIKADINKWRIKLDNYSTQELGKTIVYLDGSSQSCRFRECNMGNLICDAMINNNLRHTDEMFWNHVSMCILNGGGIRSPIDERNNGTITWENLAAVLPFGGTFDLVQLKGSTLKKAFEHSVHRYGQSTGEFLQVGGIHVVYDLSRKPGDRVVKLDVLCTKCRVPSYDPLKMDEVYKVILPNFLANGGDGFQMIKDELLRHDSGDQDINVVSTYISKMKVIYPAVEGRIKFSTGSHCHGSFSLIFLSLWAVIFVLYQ

CI [1] | CI [2] | CI [3] | CI [4] | CI [5] | CI [6] | CI [7] | CI [8] | SMILES
< 0.9 | < 0.9 | < 0.9 | < 0.9 | < 0.9 | < 0.9 | – | – | O=C(Nc1ncnc2c1ncn2Cc1ccccc1)c1cccc(-c2ccccc2)c1
– | – | – | – | – | – | < 0.9 | – | CCOP(=O)(Cn1cnc2c(NC(=O)c3cccc(-c4ccccc4)c3)ncnc21)OCC
< 0.9 | < 0.9 | < 0.9 | – | – | – | < 0.9 | < 0.9 | O=C(Nc1ncnc2ncn(Cc3ccccc3)c12)c1cccc(-c2ccccc2)c1
– | – | – | – | – | – | < 0.9 | < 0.9 | O=C(Nc1ncnc2ncn(COCc3ccccc3)c12)c1cccc(-c2ccccc2)c1
